Reference: patent US8044025B2, “Urocortin proteins and uses thereof” (Research Development Foundation, priority 2000, dated 2011)

By UniProt entry, the sequences of proteins in these tests, tags left out. Residues count along the entry.
UniProt Q60748, 27-431 isoform Q60748-2 limits assumed: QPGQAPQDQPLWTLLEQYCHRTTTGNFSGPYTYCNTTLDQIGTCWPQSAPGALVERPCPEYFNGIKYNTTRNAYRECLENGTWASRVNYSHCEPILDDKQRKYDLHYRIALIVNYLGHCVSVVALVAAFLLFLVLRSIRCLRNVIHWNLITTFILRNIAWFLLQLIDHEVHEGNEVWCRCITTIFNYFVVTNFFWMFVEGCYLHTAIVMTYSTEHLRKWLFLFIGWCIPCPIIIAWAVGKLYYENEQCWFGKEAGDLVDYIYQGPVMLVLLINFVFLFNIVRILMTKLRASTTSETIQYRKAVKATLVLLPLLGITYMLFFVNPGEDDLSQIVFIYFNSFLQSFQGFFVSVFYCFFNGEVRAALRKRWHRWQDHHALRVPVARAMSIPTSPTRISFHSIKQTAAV

Columns and labels:
[1] = target: T1, CRFR1 (Homo sapiens, UniProt P34998); assay: Radioreceptor assay, displacement of 125I-[Tyr0,Glu1,Nle17]-sauvagine, CHO cell membranes (Example 4); assay type: binding
T1 construct: expressed in transfected cells; host or cells: CHO cells, stably transfected
T1 sequence (P34998 24-415): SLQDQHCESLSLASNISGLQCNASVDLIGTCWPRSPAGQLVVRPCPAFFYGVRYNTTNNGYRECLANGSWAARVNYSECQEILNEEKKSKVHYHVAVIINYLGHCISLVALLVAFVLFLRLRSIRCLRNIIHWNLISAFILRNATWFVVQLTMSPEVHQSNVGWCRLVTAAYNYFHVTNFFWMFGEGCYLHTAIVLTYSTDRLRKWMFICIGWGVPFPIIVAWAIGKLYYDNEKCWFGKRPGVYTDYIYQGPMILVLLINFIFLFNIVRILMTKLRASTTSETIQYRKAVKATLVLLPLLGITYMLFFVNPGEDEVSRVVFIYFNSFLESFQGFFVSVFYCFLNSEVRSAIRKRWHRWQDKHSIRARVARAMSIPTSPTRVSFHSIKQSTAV
Method: The affinity of Ucn II to the CRF-R1 and CRF-R2 receptors was evaluated using a radioreceptor assay. Crude membrane fractions were prepared from CHO cells stably expressing either cloned CRF-R1 or CRF-R2β. Test peptides and the radioligand, ^125I-[Tyr^0, Glu^1, Nle^17]-sauvagine, were diluted in assay buffer (20 mM HEPES, 2 mM EGTA, 0.1% BSA, 10% sucrose, pH 7.6) and combined with the receptor membrane preparations in MAGV microtiter plates (Millipore) pre-coated with 0.1% polyethylene imine. The reaction mixture was incubated for 90 min at room temperature followed by rapid washing twice with assay buffer and filtration. The radioligand complex was quantified by gamma radiation counting. Inhibitory binding constants were determined using Prism software.
(§1) The values were determined from 3-6 independent experiments using stably transfected CHO cells or their membranes for each test peptide. EC50 and Ki values were determined using Prism software. Their log10 values were averaged (γ). The average EC50 or Ki was taken to be 10^γ. The standard deviation of the log10 values was calculated (σ). The ranges given were taken to be: [(10^γ)10^σ or 10^γ/10^σ].

[2] = system: Fos expression; assay: Ucn II-induced Fos expression in rat brain; assay type: in vivo
Excerpt: (§2) To identify cell groups responsive to central Ucn II administration, and to evaluate the extent to which these may conform to sites of CRF-R2 expression, the induced expression of the immediate-early gene product, Fos, in response; to icv peptide administration was monitored. Adult male Sprague-Dawley rats (250-300 g at start of experiments) and C57 BL/6 mice (25-40 g) were housed in a colony room on a 12:12 light:dark cycle, and with free access to food and water prior to experimentation. For intracerebroventricular (icv) injections, rats were anesthetized with ketamine/xylazine/acepromazine and stereotaxically implanted with a 26 ga guide cannula terminating in the lateral ventricle. For intravenous (iv) administration of peptides, animals were fitted with indwelling jugular venous catheters. Rats that received icv injections were also implanted intra-abdominally with a transmitter to remotely monitor gross activity levels and body temperature (Mini-Mitter). After surgery, animals were allowed to recover for 7 days prior to any experimentation, during which time they were handled daily. All procedures were approved by the Institutional Animal Care and Use Committee of the Salk Institute.
To monitor induced patterns of Fos expression, rats were injected at 10 am, either icv or iv with synthetic Ucn II (1, 5 or 10 μg/animal in 2 μl saline for icv injections or 200 μl for iv administration), or vehicle alone, and perfused two hours later. […] Consumption was then measured hourly for 6 hrs and at 12 hrs. Data were analyzed using repeated measures analysis of variance (ANOVA), with the Bonferoni correction for multiple comparisons applied as warranted.
For immunohistochemistry, tissue was pretreated sequentially with 0.3% hydrogen peroxide and 1% sodium borohydride. It was then permeabilized with PBS/0.2% triton X-100, and incubated with primary antiserum for 48 hr in PBS/2% blocking serum. Fos immunoreactivity was localized using a polyclonal antiserum raised in rabbit against an N-terminal synthetic fragment of human Fos protein (Santa Cruz Biotechnology, 1:5 K). […]

[3] = target: T2, CRF-R2 (Mus musculus, UniProt Q60748); assay: Accumulation of intracellular cAMP in stably transfected CHO cells; assay type: cell-based; details: peptides 20 min at 37° C.
T2 construct: expressed in transfected cells; host or cells: CHO cells, stably transfected
Method: as §1
(§3) This significant selectivity for the type 2 receptor was seen also in receptor activation as measured by accumulation of intracellular cAMP. Stably transfected CHO cells (cultured in DMEM/10% FBS) were plated into 48-well tissue culture dishes (Costar) and allowed to recover for 24 hours. The medium was changed to DMEM/0.1% FBS at least two hours before treatment. The cells were preincubated for 30 min with 0.1 mM 3-isobutyl-1-methylxanthine and then exposed to peptides for 20 min at 37° C. Intracellular cAMP was extracted and measured in duplicate from triplicate wells using a RIA kit (Biomedical Technologies). […] The extremely low affinity of Ucn II for CRF-R1 precluded a determination of its efficacy on this receptor.

[4] = target: T1, CRFR1; assay: as above; assay type: cell-based; details: peptides 20 min at 37° C.
Method: as §1, §3

[5] = Telemetric gross motor activity after icv peptide; assay type: in vivo, rat; details: 1 μg icv, rats, telemetry
Excerpt: as §2, with “All procedures were approved by the Institutional Animal Care and Use Committee of the Salk Institute.” left out
In these same subjects, gross motor activity and body temperature were monitored telemetrically (FIG. 10B). […] Core body temperature was also recorded, with each peptide provoking comparably mild (0.5-1° C.) and transient (2 hr) hypothermic responses (data not shown).

[6] = Nocturnal food intake after icv peptide; assay type: in vivo, rat; details: 1 μg icv, rats
Excerpt: as §2, with “Rats that received icv injections were also implanted intra-abdominally with a transmitter to remotely monitor gross activity levels and body temperature (Mini-Mitter). After surgery, animals were allowed to recover for 7 days prior to any experimentation, during which time they were handled daily. All procedures were approved by the Institutional Animal Care and Use Committee of the Salk Institute.” left out
To monitor induced patterns of Fos expression, rats were injected at 10 am, either icv or iv with synthetic Ucn II (1, 5 or 10 μg/animal in 2 μl saline for icv injections or 200 μl for iv administration), or vehicle alone, and perfused two hours later. […] Consumption was then measured hourly for 6 hrs and at 12 hrs. Data were analyzed using repeated measures analysis of variance (ANOVA), with the Bonferoni correction for multiple comparisons applied as warranted. […]

Q: Which Ki ([1]; CHO membranes, 3-6 experiments, range from SD of log10 values, read-out: CRF-R1 Avg. Ki (nM) (Binding)) does the source give for `CC[C@H](C)[C@H](NC(=O)[C@H](CCC(N)=O)NC(=O)[C@H](C)NC(=O)[C@H](CC(N)=O)NC(=O)[C@@H](NC(=O)[C@H](C)NC(=O)[C@H](C)NC(=O)[C@H](CCC(N)=O)NC(=O)[C@H](CC(N)=O)NC(=O)[C@H](CCCNC(=N)N)NC(=O)[C@H](C)NC(=O)[C@H](C)NC(=O)[C@H](CCCCN)NC(=O)[C@H](Cc1ccc(O)cc1)NC(=O)[C@H](CCCNC(=N)N)NC(=O)[C@H](C)NC(=O)[C@H](CCC(N)=O)NC(=O)[C@H](CCC(=O)O)NC(=O)[C@H](CC(C)C)NC(=O)[C@H](CC(C)C)NC(=O)[C@@H](NC(=O)[C@H](CCCNC(=N)N)NC(=O)[C@H](CC(C)C)NC(=O)[C@H](CC(C)C)NC(=O)CNC(=O)[C@@H](NC(=O)[C@@H]1CCCN1C(=O)[C@@H](NC(=O)[C@H](CC(=O)O)NC(=O)[C@H](CC(C)C)NC(=O)[C@H](CO)NC(=O)[C@H](CC(C)C)NC(=O)[C@@H](NC(=O)[C@@H](N)C(C)C)[C@@H](C)CC)C(C)C)[C@@H](C)CC)[C@@H](C)CC)[C@@H](C)O)C(=O)N[C@@H](CC(C)C)C(=O)N[C@@H](C)C(=O)N[C@@H](Cc1c[nH]cn1)C(=O)N[C@H](C(N)=O)C(C)C` [Urocortin II] here?
A: The Ki was > 100 nM.

Q: What about the “Fold less effective than urocortin at competing for binding of labeled sauvagine to CRF-R1” value ([1]; compared to urocortin) of the same compound?
A: The value was “at least 1000 fold”.

Q: And the “Induced Fos expression in brain” value ([2]; 1 μg icv, rats perfused two hours later)?
A: The value was “activational responses that were most salient in a group of interconnected structures involved in central autonomic control”.

Q: And the “Induced Fos expression in brain” value ([2]; 5 or 10 μg icv)?
A: Its value is “more robust activational responses of similar distribution”.

Q: What about the “Induced Fos expression in brain” value ([2]; intravenous, 1, 5 or 10 μg) of the same compound?
A: The value was “Only the highest (10 μg) dose gave rise to Fos induction that was clearly above control levels”.

Q: What about the EC50 [3] of the same compound?
A: The EC50 was 0.14 nM.

Q: And the EC50 [4]?
A: The EC50 was > 100 nM.

Q: What about the “Gross motor activity versus vehicle” value [5] of the same compound?
A: The value was “neither urocortin nor urocortin II significantly affected motor activity”.

Q: What about the “Gross motor activity versus vehicle” value ([5]; listed as Ucn II) of the same compound?
A: Its value is “Neither Ucn nor Ucn II treatment provoked reliable alterations”.

Q: And the “Degree of suppression of food intake over the 12 hr interval” value ([6]; nocturnal phase)?
A: Its value is 35%.

Q: And the “Time post-injection at which food intake is significantly less than saline controls” value [6]?
A: The value was 6 h.
